The values below come from US20250057837A1, “Methods for Treating HCV” (priority 2015, published 2025).

The conditions of this data set: human, in vivo.

With R-methadone, the “dose-normalized Cmax, AUC24, and C24, change” value is no more than 5%.

On to S-methadone, for which the “dose-normalized Cmax, AUC24, and C24, change” value was no more than 5%.
